The entries are a selection whose mix differs from that of the whole data set. Some tests of the compounds listed are not included; inactive here does not mean inactive elsewhere. The source made the active and inactive calls.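 The calls were made as follows: active = GTP binding activity at least 20% away from the 100% baseline, either lowered as inhibitor or raised as activator; inconclusive = flagged as likely green fluorescent, judged across all proteins in the well; inactive = the rest.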
Biological target: GTPase HRas (Homo sapiens) (UniProt P01112)
Assay: modulators of GTP binding to HRas wildtype, primary screen, biochemical, bead-based flow cytometry, multiplex (AID 759);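 also: 0% = unlabeled GTP competition control and 100% = no-compound control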
Details: GST-Ras wt beads, Bodipy-FL-GTP binding, at 10 µM, actives lie on both sides

Chains of the proteins cited; added tags and fusions are not shown.
UniProt P01112, whole entry: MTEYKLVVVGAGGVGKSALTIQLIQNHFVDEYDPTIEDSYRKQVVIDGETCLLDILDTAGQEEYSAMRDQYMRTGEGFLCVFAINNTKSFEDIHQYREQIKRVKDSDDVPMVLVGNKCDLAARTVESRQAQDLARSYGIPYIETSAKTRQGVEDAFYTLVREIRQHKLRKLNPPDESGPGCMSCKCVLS

SMILES	GTP binding activity
COc1cccc(C(=O)NCC2(N3CCCCC3)CCCCC2)c1	inactive: 94%
CN(C)c1cccc(C(=O)NCC2(N(C)C)CCCCC2)c1	inactive: 102%
O=C(OC1CN2CCC1CC2)C(CO)(c1ccccc1)c1ccccc1 (centres undefined)	inactive: 97%
CC(C)N1C(=O)CC2(CCN(CCOC(=O)C(O)(c3ccccc3)c3ccccc3)CC2)C1=O	inactive: 106%
O=C(NCC1(N2CCCCC2)CCCCC1)c1cc([N+](=O)[O-])ccc1Cl	inactive: 92%
CCN1CCCC(OC(=O)C2(O)c3ccccc3C=Cc3ccccc32)C1 (centres undefined)	inactive: 99%
C=CCN1CCN(CCOC(=O)C(O)(c2ccccc2)c2ccccc2)CC1	inactive: 97%
CN(C)C1CCCC1OC(=O)C(O)(c1ccccc1)c1ccccc1 (centres undefined)	inactive: 99%
Cc1ccccc1C(=O)NCC1(N2CCCCC2)CCCCC1	inactive: 101%
